Laboratory results taken from US20140128599A1, “BENZOXAZOLE KINASE INHIBITORS AND METHODS OF USE” (Intellikine LLC La Jolla, priority 2008, published 2014).

Tests used:
Assay type in all cases: biochemical
[1] = biological target: T1, PI3K γ (Homo sapiens, UniProt P48736); assay: PI3K kinase inhibition assay (p110γ)
T1 construct: purchased Sigma
Experimental: Class I PI3-Ks can be either purchased (p110α/p85α, p110β/p85α, p110δ/p85α from Upstate, and p110γ from Sigma) or expressed as previously described (Knight et al., 2004). IC50 values are measured using either a standard TLC assay for lipid kinase activity (described below) or a high-throughput membrane capture assay. Kinase reactions are performed by preparing a reaction mixture containing kinase, inhibitor (2% DMSO final concentration), buffer (25 mM HEPES, pH 7.4, 10 mM MgCl2), and freshly sonicated phosphatidylinositol (100 μg/ml). Reactions are initiated by the addition of ATP containing 10 μCi of γ-32P-ATP to a final concentration 10 or 100 μM and allowed to proceed for 5 minutes at room temperature. For TLC analysis, reactions are then terminated by the addition of 105 μl 1N HCl followed by 160 μl CHCl3:MeOH (1:1). The biphasic mixture is vortexed, briefly centrifuged, and the organic phase is transferred to a new tube using a gel loading pipette tip precoated with CHCl3. This extract is spotted on TLC plates and developed for 3-4 hours in a 65:35 solution of n-propanol:1M acetic acid. The TLC plates are then dried, exposed to a phosphorimager screen (Storm, Amersham), and quantitated. For each compound, kinase activity is measured at 10-12 inhibitor concentrations representing two-fold dilutions from the highest concentration tested (typically, 200 μM).

[2] = biological target: T2, PI3K δ (Homo sapiens, UniProt O00329); assay: PI3K kinase inhibition assay (p110δ/p85α)
T2 construct: purchased Upstate

[3] = biological target: T3, mTOR (Homo sapiens, UniProt P42345); assay: mTOR kinase inhibition assay
T3 construct: purchased Invitrogen

[4] = biological target: T4, PI3K α (Homo sapiens, UniProt P42336); assay: PI3K kinase inhibition assay (p110α/p85α)
T4 construct: purchased Upstate

SMILES	IC50 [1] [µM]	IC50 [2] [µM]	IC50 [3] [µM]	IC50 [4] [µM]
CC(=O)Nc1nc2ccc(-c3nn(C(C)C)c4ncnc(N)c34)cc2o1 [compound 3]	< 10	< 10	< 10	
Nc1nc2cc(-c3nn(C4CCC(N5CCOCC5)CC4)c4ncnc(N)c34)ccc2o1 (stereo not drawn) [compound 6]	< 10			< 10
Nc1nc2cc(-c3cn(C4CCOCC4)c4ncnc(N)c34)ccc2o1 [compound 9]	< 1	< 1		
CC(C)n1nc(-c2ccc3c(NC4CC4)noc3c2)c2c(N)ncnc21 [compound 14]	< 1			
CC(C)n1nc(-c2ccc3onc(NC4CC4)c3c2)c2c(N)ncnc21 [compound 16]	< 10			
